The source of these data is patent US20110020346A1 (Genentech, published 2011).

The chains behind the UniProt entries cited, without tags or fusion partners. A line that says so, or that is headed by a name, gives the form on record, which may keep a tag or linker.
UniProt Q00731, other isoform, or with tags, fused parts or gaps limits assumed: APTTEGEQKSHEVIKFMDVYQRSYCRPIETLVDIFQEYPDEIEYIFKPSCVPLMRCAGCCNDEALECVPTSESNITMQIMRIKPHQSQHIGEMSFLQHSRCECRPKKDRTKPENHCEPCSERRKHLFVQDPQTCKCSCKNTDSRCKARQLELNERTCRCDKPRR
UniProt P15692, other isoform, or with tags, fused parts or gaps limits assumed: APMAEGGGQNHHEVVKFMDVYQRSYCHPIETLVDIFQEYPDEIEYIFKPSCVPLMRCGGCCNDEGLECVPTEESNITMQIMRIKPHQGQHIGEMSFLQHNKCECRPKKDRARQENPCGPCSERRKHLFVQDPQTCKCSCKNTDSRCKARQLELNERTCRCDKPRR

Numbering of substitutions follows the chain as printed.

Assay [1] addresses T1, murine VEGF (mVEGF) (mouse, UniProt Q00731-2 27-190, limits assumed).
T1 construct: also called mouse VEGF
The experiment in a line: Kd from koff/kon.

A further assay has as its target T2, human VEGF (hVEGF) (human, UniProt P15692-4 27-191, limits assumed).
T2 construct: Used wherever an assay says only hVEGF
In words: SPR (BIAcore), FIG. 8. (In general: In SPR one partner is held on a chip, and binding of the other changes the refractive index at the surface.)

In assay [2] the target is T1, murine VEGF (mVEGF). The experiment in a line: SPR (BIAcore), FIG. 8.

B1: G6-23 Fab (Fab, V domains shown)
VH: EVQLVESGGGLVQPGGSLRLSCAASGFTISDYWIHWVRQAPGKGLEWVAGITPAGGYTYYADSVKGRFTISADTSKNTAYLQMNSLRAEDTAVYYCARFVFFLPYAMDYWGQGTLVTVSS
VL: DIQMTQSPSSLSASVGDRVTITCRASQDVSTAVAWYQQKPGKAPKLLIYSASFLYSGVPSRFSGSGSGTDFTLTISSLQPEDFATYYCKQGYANPWTFGQGTKVEIKR
notes: 30-33; also called FabG6-23; Fab-G6-23
Regarding B1, the “fold improvement in affinity (Kd) over G6” value with murine VEGF (mVEGF) [1] was in the range of 40 to 60 fold. Further, the “fold better Kd than G6” value with human VEGF (hVEGF) and with murine VEGF (mVEGF) [2] was at least 7 fold each time.

B2: G6-31 Fab (Fab, V domains shown)
VH: B1 VH
VL: B1 VL with K89Q, A93G, W96F
notes: also called Fab-G6-31
As to B2, in the assay with murine VEGF (mVEGF) [1], the “fold improvement in affinity (Kd) over G6” value lay in the range of 40 to 60 fold.
